# Earlier results in paper PMC3590912 (Journal of medicinal chemistry, 2012).
# Molecular target: T1, mouse UT-B (Mus musculus, UniProt Q8VHL0)
# T1 sequence (Q8VHL0 1-384): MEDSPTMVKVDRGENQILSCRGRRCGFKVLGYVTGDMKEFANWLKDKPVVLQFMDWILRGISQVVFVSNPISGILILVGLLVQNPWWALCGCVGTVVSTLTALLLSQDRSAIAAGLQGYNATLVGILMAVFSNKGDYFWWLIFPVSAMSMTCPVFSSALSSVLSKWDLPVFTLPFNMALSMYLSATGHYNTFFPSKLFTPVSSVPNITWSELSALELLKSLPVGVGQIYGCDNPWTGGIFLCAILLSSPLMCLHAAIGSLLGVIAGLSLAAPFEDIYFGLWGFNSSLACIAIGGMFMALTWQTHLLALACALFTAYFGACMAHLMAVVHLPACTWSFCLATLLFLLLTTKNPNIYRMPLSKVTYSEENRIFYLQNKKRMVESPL
# Conditions: cited from earlier work
smiles,measurement,value
CCc1ccc(S(=O)(=O)c2nnn3c2nc(NCc2cccs2)c2sccc23)cc1 [compound 1],selectivity for UT-B over UT-A isoforms,highly selective for UT-B over UT-A isoforms
